Reference: patent publication US20160199524A1, “RADIOSENSITIVITY OF FLUOROPHORES AND USE OF RADIOPROTECTIVE AGENTS FOR DUAL-MODALITY IMAGING” (Immunomedics, Inc., priority 2015, published 2016)
Where a SMILES comes first, the peptide text is derived from it. The star is where a group is joined. NOTA = O=C(O)CN1CCN(CC(=O)O)CCN(CC(=O)*)CC1; Aoc = NCCCCCCCC(=O)O

System: PC-3 cells
Format: binding, human
Settings: initial experiment, inhibitor range 56 to 0.44 nM
Experimental: A NOTA-conjugated bombesin derivative (IMP468) was prepared as described above. We began testing its ability to block radiolabeled bombesin from binding to PC-3 cells as was done by Prasanphanich et al. (PNAS 104:12462-12467, 2007). Our initial experiment was to determine if IMP468 could specifically block bombesin from binding to PC-3 cells. We used IMP333 as a non-specific control. […] A range of 56 to 0.44 nM was used as our inhibitory concentrations.
This experiment was repeated using a commercially available BBN peptide. We increased the amount of inhibitory peptide from 250 to 2 nM to block the ^125I-BBN from binding to PC-3 cells.

SMILES: CSCC[C@H](NC(=O)[C@H](CC(C)C)NC(=O)[C@H](Cc1c[nH]cn1)NC(=O)CNC(=O)[C@@H](NC(=O)[C@H](C)NC(=O)[C@H](Cc1c[nH]c2ccccc12)NC(=O)[C@@H](NC(=O)[C@H](Cc1c[nH]c2ccccc12)NC(=O)CCCCCCCNC(=O)CN1CCN(CC(=O)O)CCN(CC(=O)O)CC1)C(C)C)C(C)C)C(N)=O [IMP468] ({NOTA-Aoc}-WVWAVGHLM-NH2)
- block the binding of ^125I-BBN: could block
